Laboratory results: PubChem BioAssay AID1012 (Sanford-Burnham Center for Chemical Genomics, 2008)
The entries are a selection whose mix differs from that of the whole data set. Some results for these compounds are left out of this collection, so the calls shown say nothing about other tests. Calls of active or inactive are those of the source.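 How the source made its calls: active means tissue-nonspecific alkaline phosphatase inhibition above about 50% at 20 µM in the single-dose screen (limit read from the data); inactive means the rest.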

Protein sequences, listed by entry. Tags and fused reporters are not part of them.
UniProt P05186, whole entry: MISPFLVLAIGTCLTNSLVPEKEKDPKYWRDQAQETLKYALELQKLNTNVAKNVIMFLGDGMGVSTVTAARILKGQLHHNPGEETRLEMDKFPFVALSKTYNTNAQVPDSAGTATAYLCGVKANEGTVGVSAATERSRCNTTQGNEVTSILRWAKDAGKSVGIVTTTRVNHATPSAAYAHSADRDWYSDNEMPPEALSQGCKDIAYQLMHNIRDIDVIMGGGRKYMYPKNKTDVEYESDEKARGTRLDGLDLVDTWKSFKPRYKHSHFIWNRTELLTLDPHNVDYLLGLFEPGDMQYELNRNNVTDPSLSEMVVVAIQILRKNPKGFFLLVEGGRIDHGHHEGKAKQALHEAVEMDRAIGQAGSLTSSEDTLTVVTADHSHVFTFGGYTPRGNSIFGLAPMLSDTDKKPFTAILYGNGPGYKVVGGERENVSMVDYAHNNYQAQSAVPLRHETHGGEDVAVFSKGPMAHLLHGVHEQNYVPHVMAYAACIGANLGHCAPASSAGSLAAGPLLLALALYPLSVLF

Each molecule was assayed against Alkaline phosphatase, tissue-nonspecific isozyme (Homo sapiens) (UniProt P05186) (assay: blockers of alkaline phosphatase TNAP activity – biochemical, luminescent, no phosphate acceptor, uHTS, primary screen (AID 1012;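 further: 0% = DMSO negative control and 100% = EDTA positive control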)). Conditions: purified TNAP, CDP-star luminescence, 30 min; at 20 µM; active compounds read high.

SMILES	inhibition
CN(C)C1CCCC1OC(=O)C(O)(c1ccccc1)c1ccccc1 (centres undefined)	inactive: -12.9%
Cc1ccccc1C(=O)NCC1(N2CCCCC2)CCCCC1	inactive: -8.3%
CCN1CCCC(OC(=O)C2(O)c3ccccc3C=Cc3ccccc32)C1 (centres undefined)	inactive: -3.8%
C=CCN1CCN(CCOC(=O)C(O)(c2ccccc2)c2ccccc2)CC1	inactive: -4.8%
O=C(NCC1(N2CCCCC2)CCCCC1)c1cc([N+](=O)[O-])ccc1Cl	inactive: -13%
CC(C)N1C(=O)CC2(CCN(CCOC(=O)C(O)(c3ccccc3)c3ccccc3)CC2)C1=O	inactive: -3%
O=C(OC1CN2CCC1CC2)C(CO)(c1ccccc1)c1ccccc1 (centres undefined)	inactive: -9%
CN(C)c1cccc(C(=O)NCC2(N(C)C)CCCCC2)c1	inactive: -8.8%
COc1cccc(C(=O)NCC2(N3CCCCC3)CCCCC2)c1	inactive: -18.3%
